Test results as given in patent publication US20190119377A1.

Target: CD16 on CD16-transfected NFAT-bla Jurkat cells (UniProt P08637)
Assay: competition flow cytometry; displacement of AF488-labelled human IgG1 (25 nM) from CD16-transfected NFAT-bla Jurkat cells

Substance: Recombinant human IgG1 Fc monomer (from UniProt P0DOX5 218-449) (other; other documents disagree on this pair)
- Ki: 240 nM
